Settings in all cases: read-out: EC50, substance P-induced migration; percent closure at 24 hours; sigmoidal curve fit; FIG. 3
One test deals with human MSCs. Nature of the test: Stem cell migration assay (percent closure of cell-free zone). How it is done:
(§1) FIG. 1 is a microphotograph depicting cell migration using fluorescent readout and cell tracker green as a fluorescent marker of human UC-MSCs. […] The EC50 was determined as a measure of effectiveness of activating agents. […] An initial analysis of the cell free zone using Image J software was used to screen concentrations of activating agents for dose-response determination in further experiments.
(§2) The cell migration assays described above were set up as follows: One million cells/cell line were resuspended in 10 mL MSC-GRO™ serum free, quiescent medium (Vitro Biopharma Cat. No. SC00B17) containing […] mitomycin C (Sigma, Cat. No. M4287) to inhibit proliferation and incubated for 2 hours at room temperature with end-to-end agitation at 7 RPM. In some experiments, curcumin was used at 1 μM to block proliferation. […] A TOPSEAL™ (PerkinElmer, Cat. No. 6050195) covered the plate for live-cell imaging in a BioTek Cytation3 Imaging Reader. […]

In another test the test system is human NSCs. The procedure: as §1, §2
In test [1] the test system is human pancreatic fibroblasts. The procedure:
as §1, §2

The values that follow come from patent publication US20250268948A1, “COMPOSITIONS AND METHODS FOR TREATING POST ACUTE SEQUELAE OF SARS-COV-2 INFECTION (LONG COVID)” (priority 2022, published 2025).

Consider `CSCC[C@H](NC(=O)[C@H](CC(C)C)NC(=O)CNC(=O)[C@H](Cc1ccccc1)NC(=O)[C@H](Cc1ccccc1)NC(=O)[C@H](CCC(N)=O)NC(=O)[C@H](CCC(N)=O)NC(=O)[C@@H]1CCCN1C(=O)[C@H](CCCCN)NC(=O)[C@@H]1CCCN1C(=O)[C@@H](N)CCCNC(=N)N)C(N)=O` [substance P], for which the EC50 with human MSCs was 2.48 nM; in the test on human NSCs, 2.35 nM; in test [1], 2.5 nM.
